Measurements taken from ChEMBL document CHEMBL3259737, “Lead optimization studies of cinnamic amide EP2 antagonists” (J Med Chem, 2014).
Converted amounts (≈) assume the structure as drawn.

Test: physchem
Conditions: buffer, pH 7.4

Question: For `COc1cc(/C=C/C(=O)NCCn2c(C(F)(F)F)cc3ccccc32)cc(OC)c1OC`, which solubility kinetic is on record?
Answer: 27 µM (≈ 12.1 µg/mL)
